Earlier results on 1 substance are cited in patent publication US11185598B2, “Preparation of stabilised x-ray diagnostic composition” (GE HEALTHCARE AS, priority 2010, dated 2021).

The conditions of the data set: cited from earlier work.

In general, pKa refers to the negative logarithm of the acid dissociation constant. Regarding tris(hydroxymethyl)aminomethane, the pKa is given as 8.06.
